## Apparent affinities of Ab-14 variants for a coronavirus HR2 peptide

From the AlphaSeq antibody data of Engelhart et al. 2022 (doi:10.1038/s41597-022-01779-4), copy in the FLAb collection.

Antigen: PDVDLGDISGINAS, a 14-residue peptide of the SARS-CoV-2 spike HR2 region.

Each scFv is VH, a (GGGGS)3 linker, VL, as in the parent Ab-14, and differs from it in the CDRs of the heavy chain only.
VH: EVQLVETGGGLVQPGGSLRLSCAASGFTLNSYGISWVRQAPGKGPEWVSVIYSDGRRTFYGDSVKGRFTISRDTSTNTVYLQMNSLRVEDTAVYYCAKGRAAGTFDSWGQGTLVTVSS
VL: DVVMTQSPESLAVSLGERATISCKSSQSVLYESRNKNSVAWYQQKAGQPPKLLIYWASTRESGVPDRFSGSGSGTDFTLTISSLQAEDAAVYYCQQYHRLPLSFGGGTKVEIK

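The parent was found by panning a naive human phage display library on the peptide. In library AAYL49, one, two or three CDR residues were substituted; doubles and triples were drawn at random. The assay is AlphaSeq: two haploid yeast populations carry antibody and antigen on their surface. Binding brings cells together so that they mate, and sequencing counts the barcode pairs among the diploids. The ratio of observed to expected reads was calibrated, replicate by replicate, on BCL2-family standards whose Kd was known from biolayer interferometry. There are three technical replicates.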

Changes read parent residue, position, new residue, counted from the first residue of the VH shown.
Numbers give log10(Kd / nM), so 0 is 1 nM and 3 is 1 µM. Smaller is tighter.
Averages over replicates are reported, and they cover detected replicates only.
An entry "nd" has no value in the source: the pair was not observed among the diploids in that replicate. This suggests poor binding but is not conclusive.
In this assay the parent's reference entry averaged 0.65; its copy inside this library read 4.11 (one replicate of three).
Nonspecific signal, from three strains lacking the peptide, appeared in 15% of pairings of library AAYL49, centred on 4.06 (5% of these signals below 2.83); values are not corrected for it. For each scFv, signals with the empty controls are counted beside the result, with their mean in brackets.

changes | log10 Kd, replicates | mean log10 Kd (nM) | empty controls
S35V I51L S107A | nd / nd / nd | nd | 0 of 9
T28I A102M G103H | nd / nd / nd | nd | 1 of 9 (2.48)
F27L Y32W T58K | nd / 3.91 / nd | 3.91 | 2 of 9 (3.91)
D62S K65S F105V | 5.04 / 3.34 / 4.72 | 4.36 | 3 of 9 (4.69)
Y32H F59W A101N | nd / nd / nd | nd | 0 of 9
S35G T58Y F105N | nd / 3.92 / 4.88 | 4.40 | 3 of 9 (4.65)
V50C S53F R56T | nd / 3.90 / nd | 3.90 | 2 of 9 (5.10)
Y32N R57K D106Y | nd / nd / nd | nd | 0 of 9
S63W V64K A101Q | nd / 4.69 / nd | 4.69 | 2 of 9 (4.04)
L29A D62Q R100W | nd / nd / nd | nd | 1 of 9 (3.40)
T28V K65N A101C | 3.31 / 3.42 / 3.79 | 3.51 | 1 of 9 (4.10)
G33P S63T A102R | nd / nd / 5.29 | 5.29 | 0 of 9
Y52D D54L | nd / nd / nd | nd | 2 of 9 (2.71)
S53K S107H | 5.45 / nd / nd | 5.45 | 6 of 9 (4.28)
F27R Y52K D106I | 3.51 / nd / nd | 3.51 | 1 of 9 (3.65)
Y32E G33T A102L | nd / nd / nd | nd | 0 of 9
D54Q R100P | nd / nd / nd | nd | 0 of 9
G26E R56M D62C | nd / 4.15 / nd | 4.15 | 6 of 9 (4.30)
L29I S35I R56F | nd / 5.49 / nd | 5.49 | 4 of 9 (4.09)
N30T G33L A101Y | nd / nd / nd | nd | 0 of 9
Y52P D54V K65D | nd / nd / nd | nd | 3 of 9 (3.88)
G26F D54S T58C | nd / nd / nd | nd | 0 of 9
L29K I51H G55A | nd / nd / nd | nd | 1 of 9 (3.42)
I34D S63P G99Y | 3.56 / nd / 4.91 | 4.24 | 4 of 9 (4.50)
F27K L29W D54S | nd / nd / nd | nd | 0 of 9
I51E Y52M D62S | nd / nd / nd | nd | 1 of 9 (4.76)
I34S V50S R56A | nd / nd / nd | nd | 2 of 9 (3.97)
N30S Y52A R56A | nd / nd / nd | nd | 0 of 9
L29H S31T Y32K | 2.79 / 2.46 / 2.69 | 2.65 | 4 of 9 (3.58)
G33N R56C | nd / 3.93 / nd | 3.93 | 2 of 9 (3.73)
R57Y G61S T104N | nd / 3.94 / nd | 3.94 | 1 of 9 (2.02)
D62I S63I D106S | nd / nd / nd | nd | 1 of 9 (3.20)
S53F D62A G99F | nd / nd / nd | nd | 0 of 9

Top 3 of the variants detected in all replicates, tightest first:

changes | log10 Kd, replicates | mean log10 Kd (nM) | empty controls
L29H S31T Y32K | 2.79 / 2.46 / 2.69 | 2.65 | 4 of 9 (3.58)
T28V K65N A101C | 3.31 / 3.42 / 3.79 | 3.51 | 1 of 9 (4.10)
D62S K65S F105V | 5.04 / 3.34 / 4.72 | 4.36 | 3 of 9 (4.69)